Nine molecules from patent US12564559B2, “Combinations of LSD1 inhibitors for use in the treatment of solid tumors” (Oryzon Genomics, S.A., priority 2016, dated 2026) can be followed below.

The test relates to SCLC cell lines. Kind of test: In vitro Synergy Score of combinations with the LSD1 inhibitor in expanded panel of SCLC cell lines, Example 3 / Table 5. Type of test: cell-based, human. Particulars: for Synergy Scores of SCLC cell lines DMS-114: SCLC cell line DMS-114; for Synergy Scores of SCLC cell lines DMS-114 / Synergy Scores of SCLC cell lines NCI-H69 / Synergy Scores of SCLC cell lines NCI-H187 / Synergy Scores of SCLC cell lines NCI-H446 / Synergy Scores of SCLC cell lines NCI-H510 / Synergy Scores of SCLC cell lines NCI-H526 / Synergy Scores of SCLC cell lines NCI-H1417 / Synergy Scores of SCLC cell lines NCI-H1876 / Synergy Scores of SCLC cell lines NCI-H2171 / Synergy Scores of SCLC cell lines SHP-77: 2nd API combined with (trans)-N1-((1R,2S)-2-phenylcyclopropyl)cyclohexane-1,4-diamine, scores >6.4 considered significant; for Synergy Scores of SCLC cell lines NCI-H69: SCLC cell line NCI-H69; for Synergy Scores of SCLC cell lines NCI-H187: SCLC cell line NCI-H187; for Synergy Scores of SCLC cell lines NCI-H446: SCLC cell line NCI-H446; for Synergy Scores of SCLC cell lines NCI-H510: SCLC cell line NCI-H510; for Synergy Scores of SCLC cell lines NCI-H526: SCLC cell line NCI-H526; for Synergy Scores of SCLC cell lines NCI-H1417: SCLC cell line NCI-H1417; for Synergy Scores of SCLC cell lines NCI-H1876: SCLC cell line NCI-H1876; for Synergy Scores of SCLC cell lines NCI-H2171: SCLC cell line NCI-H2171; for Synergy Scores of SCLC cell lines SHP-77: SCLC cell line SHP-77; for synergy with LSD1 inhibition: combination with (trans)-N1-((1R,2S)-2-phenylcyclopropyl)cyclohexane-1,4-diamine, expanded panel of SCLC cell lines.

For `Cc1sc2c(c1C)C(c1ccc(Cl)cc1)=N[C@@H](CC(=O)Nc1ccc(O)cc1)c1nnc(C)n1-2` [OTX015, (6S)-4-(4-chlorophenyl)-N-(4-hydroxyphenyl)-2,3,9-trimethyl-6H-Thieno[3,2-f][l,2,4]triazolo[4,3-a][1,4]diazepine-6-acetamide], the “Synergy Scores of SCLC cell lines DMS-114” value is given as 0.10, the “Synergy Scores of SCLC cell lines NCI-H69” value came to 8.65, the “Synergy Scores of SCLC cell lines NCI-H187” value worked out at 0.88 and the “Synergy Scores of SCLC cell lines NCI-H446” value is reported as 0.44. The “Synergy Scores of SCLC cell lines NCI-H510” value is 11.52, the “Synergy Scores of SCLC cell lines NCI-H526” value is 16.72, the “Synergy Scores of SCLC cell lines NCI-H1417” value amounted to 14.26 and the “Synergy Scores of SCLC cell lines NCI-H1876” value is reported as 14.88. The “Synergy Scores of SCLC cell lines NCI-H2171” value is 5.30, the “Synergy Scores of SCLC cell lines SHP-77” value turned out to be 0.78 and the “synergy with LSD1 inhibition” value is reported as “highly synergistic”.
`C[C@H](NC(=O)CCC(F)(F)F)C(=O)N[C@@H]1C(=O)N(CCO)c2ncccc2-c2ccccc21` [LY-3039478, N-[(1S)-2-[[(7S)-6,7-dihydro-5-(2-hydroxyethyl)-6-oxo-5H-pyrido[3,2-a][3]benzazepin-7-yl]amino]-1-methyl-2-oxoethyl]-4,4,4-trifluoro-butanamide]: the “Synergy Scores of SCLC cell lines DMS-114” value was 0.00, the “Synergy Scores of SCLC cell lines NCI-H69” value amounted to 4.94, the “Synergy Scores of SCLC cell lines NCI-H187” value was determined as 0.47 and the “Synergy Scores of SCLC cell lines NCI-H446” value was determined as 0.28. Also, the “Synergy Scores of SCLC cell lines NCI-H510” value amounted to 0.00, the “Synergy Scores of SCLC cell lines NCI-H526” value was determined as 7.90, the “Synergy Scores of SCLC cell lines NCI-H1417” value is given as 0.21 and the “Synergy Scores of SCLC cell lines NCI-H1876” value stood at 0.19. Moreover, the “Synergy Scores of SCLC cell lines NCI-H2171” value is given as 0.30 and the “Synergy Scores of SCLC cell lines SHP-77” value came out at 0.12.
Regarding `COC1=CC(c2cc3ccccc3[nH]2)=NC1=Cc1[nH]c(C)cc1C` [Obatoclax, 2-(2-((3,5-Dimethyl-1H-pyrrol-2-yl)methylene)-3-methoxy-2H-pyrrol-5-yl)-1H-indole], the “Synergy Scores of SCLC cell lines DMS-114” value was found to be 1.87, the “Synergy Scores of SCLC cell lines NCI-H69” value was determined as 6.01, the “Synergy Scores of SCLC cell lines NCI-H187” value is reported as 0.81 and the “Synergy Scores of SCLC cell lines NCI-H446” value was found to be 2.57. Also, the “Synergy Scores of SCLC cell lines NCI-H510” value amounted to 6.31, the “Synergy Scores of SCLC cell lines NCI-H526” value is recorded as 8.19, the “Synergy Scores of SCLC cell lines NCI-H1417” value is given as 2.36 and the “Synergy Scores of SCLC cell lines NCI-H1876” value came out at 6.11. Moreover, the “Synergy Scores of SCLC cell lines NCI-H2171” value is on record as 0.61, the “Synergy Scores of SCLC cell lines SHP-77” value is given as 4.76 and the “synergy with LSD1 inhibition” value is “highly synergistic”.
For the molecule `CC1(C)CCC(CN2CCN(c3ccc(C(=O)NS(=O)(=O)c4ccc(NCC5CCOCC5)c([N+](=O)[O-])c4)c(Oc4cnc5[nH]ccc5c4)c3)CC2)=C(c2ccc(Cl)cc2)C1` [ABT-199, 4-[4-[[2-(4-Chlorophenyl)-4,4-dimethylcyclohex-1-en-1-yl]methyl]piperazin-1-yl]-N-[[3-nitro-4-[[(tetrahydro-2H-pyran-4-yl)methyl]amino]phenyl]sulfonyl]-2-[(1H-pyrrolo[2,3-b]pyridin-5-yl)oxy]benzamide], the “Synergy Scores of SCLC cell lines DMS-114” value is on record as 0.03, the “Synergy Scores of SCLC cell lines NCI-H69” value is on record as 5.07, the “Synergy Scores of SCLC cell lines NCI-H187” value is listed as 1.95 and the “Synergy Scores of SCLC cell lines NCI-H446” value was 0.07. The “Synergy Scores of SCLC cell lines NCI-H510” value is 13.46, the “Synergy Scores of SCLC cell lines NCI-H526” value is on record as 3.47, the “Synergy Scores of SCLC cell lines NCI-H1417” value is 11.01 and the “Synergy Scores of SCLC cell lines NCI-H1876” value is 4.63. For the same molecule, the “Synergy Scores of SCLC cell lines NCI-H2171” value is 0.04, the “Synergy Scores of SCLC cell lines SHP-77” value was determined as 0.33 and the “synergy with LSD1 inhibition” value is “highly synergistic”.
In the case of `CC(=O)N1c2ccc(-c3ccc(C(=O)O)cc3)cc2[C@H](Nc2ccc(Cl)cc2)C[C@@H]1C` [GSK1324726A, 4-[(2S,4R)-1-acetyl-4-[(4-chlorophenyl)amino]-l,2,3,4-tetrahydro-2-methyl-6-quinolinyl]-benzoic acid], the “Synergy Scores of SCLC cell lines DMS-114” value came to 1.22, the “Synergy Scores of SCLC cell lines NCI-H69” value was 10.17, the “Synergy Scores of SCLC cell lines NCI-H187” value came out at 2.66 and the “Synergy Scores of SCLC cell lines NCI-H446” value amounted to 1.25. In addition, the “Synergy Scores of SCLC cell lines NCI-H510” value is given as 21.32, the “Synergy Scores of SCLC cell lines NCI-H526” value is 12.18, the “Synergy Scores of SCLC cell lines NCI-H1417” value was found to be 21.84 and the “Synergy Scores of SCLC cell lines NCI-H1876” value is on record as 15.98. In addition, the “Synergy Scores of SCLC cell lines NCI-H2171” value is 9.12, the “Synergy Scores of SCLC cell lines SHP-77” value is recorded as 0.72 and the “synergy with LSD1 inhibition” value is reported as “highly synergistic”.
For `Cc1cc(C)c(CNC(=O)c2cc(-c3ccc(CN4CCOCC4)cc3)cc3c2cnn3C2CCCC2)c(=O)[nH]1` [EPZ005687, 1-cyclopentyl-N-[(1,2-dihydro-4,6-dimethyl-2-oxo-3-pyridinyl)methyl]-6-[4-(4-morpholinylmethyl)phenyl]-1H-indazole-4-carboxamide], the “Synergy Scores of SCLC cell lines DMS-114” value turned out to be 0.14, the “Synergy Scores of SCLC cell lines NCI-H69” value came to 0.80, the “Synergy Scores of SCLC cell lines NCI-H187” value came out at 0.10 and the “Synergy Scores of SCLC cell lines NCI-H446” value came out at 0.35. The “Synergy Scores of SCLC cell lines NCI-H510” value is 10.77, the “Synergy Scores of SCLC cell lines NCI-H526” value was 3.66, the “Synergy Scores of SCLC cell lines NCI-H1417” value was 0.46 and the “Synergy Scores of SCLC cell lines NCI-H1876” value was determined as 4.57. Moreover, the “Synergy Scores of SCLC cell lines NCI-H2171” value is 0.48, the “Synergy Scores of SCLC cell lines SHP-77” value is 0.23 and the “synergy with LSD1 inhibition” value is “Synergy was also observed”.
Take `CN(C(=O)c1ccc(F)cc1C(F)(F)F)C1CCN(c2nnc(-c3ccnn3C)c3ccccc23)CC1` [Taladegib, 4-fluoro-N-methyl-N-[1-[4-(1-methyl-1H-pyrazol-5-yl)-1-phthalazinyl]-4-piperidinyl]-2-(trifluoromethyl)-benzamide]: the “Synergy Scores of SCLC cell lines DMS-114” value worked out at 0.10, the “Synergy Scores of SCLC cell lines NCI-H69” value is given as 2.35, the “Synergy Scores of SCLC cell lines NCI-H187” value was 0.09 and the “Synergy Scores of SCLC cell lines NCI-H446” value was determined as 0.01. For the same molecule, the “Synergy Scores of SCLC cell lines NCI-H510” value turned out to be 2.50, the “Synergy Scores of SCLC cell lines NCI-H526” value is given as 3.66, the “Synergy Scores of SCLC cell lines NCI-H1417” value is 0.19 and the “Synergy Scores of SCLC cell lines NCI-H1876” value is listed as 1.64. The “Synergy Scores of SCLC cell lines NCI-H2171” value was 0.11 and the “Synergy Scores of SCLC cell lines SHP-77” value is on record as 0.19.
For `CCN(c1cc(-c2ccc(CN3CCOCC3)cc2)cc(C(=O)NCc2c(C)cc(C)[nH]c2=O)c1C)C1CCOCC1` [EPZ-6438, N-[(1,2-dihydro-4,6-dimethyl-2-oxo-3-pyridinyl)methyl]-5-[ethyl(tetrahydro-2H-pyran-4-yl)amino]-4-methyl-4′-(4-morpholinylmethyl)-[1,1′-biphenyl]-3-carboxamide], the “Synergy Scores of SCLC cell lines DMS-114” value was 0.04, the “Synergy Scores of SCLC cell lines NCI-H69” value came to 0.68, the “Synergy Scores of SCLC cell lines NCI-H187” value was 0.03 and the “Synergy Scores of SCLC cell lines NCI-H446” value was 0.00. For the same molecule, the “Synergy Scores of SCLC cell lines NCI-H510” value turned out to be 9.06, the “Synergy Scores of SCLC cell lines NCI-H526” value is listed as 1.82, the “Synergy Scores of SCLC cell lines NCI-H1417” value was found to be 0.31 and the “Synergy Scores of SCLC cell lines NCI-H1876” value came out at 8.18. The “Synergy Scores of SCLC cell lines NCI-H2171” value turned out to be 0.01, the “Synergy Scores of SCLC cell lines SHP-77” value is recorded as 0.02 and the “synergy with LSD1 inhibition” value was “Synergy was also observed”.
`O=C(O)CC[C@H]1CC[C@@](c2cc(F)ccc2F)(S(=O)(=O)c2ccc(Cl)cc2)CC1` [MK-0752, cis-4-[(4-chlorophenyl)sulfonyl]-4-(2,5-difluorophenyl)-cyclohexanepropanoic acid]: the “Synergy Scores of SCLC cell lines DMS-114” value is on record as 0.04, the “Synergy Scores of SCLC cell lines NCI-H69” value came to 3.88, the “Synergy Scores of SCLC cell lines NCI-H187” value was determined as 0.32 and the “Synergy Scores of SCLC cell lines NCI-H446” value came to 0.43. The “Synergy Scores of SCLC cell lines NCI-H510” value is 0.71, the “Synergy Scores of SCLC cell lines NCI-H526” value amounted to 6.03, the “Synergy Scores of SCLC cell lines NCI-H1417” value is reported as 0.15 and the “Synergy Scores of SCLC cell lines NCI-H1876” value was found to be 0.69. Moreover, the “Synergy Scores of SCLC cell lines NCI-H2171” value was 0.17 and the “Synergy Scores of SCLC cell lines SHP-77” value worked out at 0.03.
